Results reported in patent EP2663342B1, “STABLE HYDROGEL COMPOSITIONS INCLUDING PHENYLEPHRINE” (ALLERGAN, INC., priority 2011, dated 2012).

Test: Aspect (color/clarity/homogeneity) of HA-based gel after autoclaving
Format: physicochemical
Settings: 1% (w/w), 3.5% (w/w), or 7% (w/w) TPGS in HA-based gel matrix; same before autoclaving

Tocopherol polyethylene glycol 1000 succinate
aspect of gel after autoclaving: clear and uncolored
